Assay results taken from patent US7211424B1, “Mammalian Subtilisin/kexin isozyme SKI-1: a proprotein convertase with a unique cleavage specificity” (Institut de Recherches Cliniques de Montreal, priority 1999, dated 2007).

T1: BTMD-SKI-1 (Homo sapiens, UniProt Q14703)
T1 sequence (Q14703 187-997 limits assumed): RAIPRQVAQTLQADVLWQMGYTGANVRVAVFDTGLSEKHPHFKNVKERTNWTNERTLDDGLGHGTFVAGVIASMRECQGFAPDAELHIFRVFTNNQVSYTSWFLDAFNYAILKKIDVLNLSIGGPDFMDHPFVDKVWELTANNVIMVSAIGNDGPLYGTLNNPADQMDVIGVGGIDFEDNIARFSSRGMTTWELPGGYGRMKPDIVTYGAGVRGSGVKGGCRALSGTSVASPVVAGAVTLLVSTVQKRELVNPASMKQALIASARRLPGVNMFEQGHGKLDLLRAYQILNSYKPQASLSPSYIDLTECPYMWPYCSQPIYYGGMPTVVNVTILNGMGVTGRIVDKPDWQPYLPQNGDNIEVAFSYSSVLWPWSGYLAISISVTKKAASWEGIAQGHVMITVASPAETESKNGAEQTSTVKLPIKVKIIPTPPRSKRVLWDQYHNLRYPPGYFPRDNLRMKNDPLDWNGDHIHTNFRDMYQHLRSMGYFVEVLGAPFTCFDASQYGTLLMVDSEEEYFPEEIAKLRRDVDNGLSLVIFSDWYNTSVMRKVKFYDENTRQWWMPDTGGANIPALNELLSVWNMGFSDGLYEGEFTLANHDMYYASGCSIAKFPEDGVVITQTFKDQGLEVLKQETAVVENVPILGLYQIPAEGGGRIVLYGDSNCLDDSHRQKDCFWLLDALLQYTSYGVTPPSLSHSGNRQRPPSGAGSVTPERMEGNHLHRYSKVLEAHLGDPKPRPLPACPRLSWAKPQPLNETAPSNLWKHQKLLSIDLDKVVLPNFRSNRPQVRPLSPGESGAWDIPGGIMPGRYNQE
T1 sequence (Q14703 17-137 partner limits assumed): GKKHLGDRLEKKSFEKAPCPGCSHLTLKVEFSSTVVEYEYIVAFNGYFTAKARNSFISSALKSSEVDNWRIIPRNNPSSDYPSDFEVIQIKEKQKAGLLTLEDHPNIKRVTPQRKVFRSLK

T2: BTMD-SKI-1 (human, UniProt Q14703 187-997)
T2 construct: The construct encodes aa 1-997 plus hexa-His; It was secreted from VV-infected BSC40 or LoVo cells and used as concentrated medium or after metal chelation purification; The secreted enzyme stays associated with the ~14 kDa prosegment fragment; also called bSKI-1; BTMD-hSKI-1
T2 sequence: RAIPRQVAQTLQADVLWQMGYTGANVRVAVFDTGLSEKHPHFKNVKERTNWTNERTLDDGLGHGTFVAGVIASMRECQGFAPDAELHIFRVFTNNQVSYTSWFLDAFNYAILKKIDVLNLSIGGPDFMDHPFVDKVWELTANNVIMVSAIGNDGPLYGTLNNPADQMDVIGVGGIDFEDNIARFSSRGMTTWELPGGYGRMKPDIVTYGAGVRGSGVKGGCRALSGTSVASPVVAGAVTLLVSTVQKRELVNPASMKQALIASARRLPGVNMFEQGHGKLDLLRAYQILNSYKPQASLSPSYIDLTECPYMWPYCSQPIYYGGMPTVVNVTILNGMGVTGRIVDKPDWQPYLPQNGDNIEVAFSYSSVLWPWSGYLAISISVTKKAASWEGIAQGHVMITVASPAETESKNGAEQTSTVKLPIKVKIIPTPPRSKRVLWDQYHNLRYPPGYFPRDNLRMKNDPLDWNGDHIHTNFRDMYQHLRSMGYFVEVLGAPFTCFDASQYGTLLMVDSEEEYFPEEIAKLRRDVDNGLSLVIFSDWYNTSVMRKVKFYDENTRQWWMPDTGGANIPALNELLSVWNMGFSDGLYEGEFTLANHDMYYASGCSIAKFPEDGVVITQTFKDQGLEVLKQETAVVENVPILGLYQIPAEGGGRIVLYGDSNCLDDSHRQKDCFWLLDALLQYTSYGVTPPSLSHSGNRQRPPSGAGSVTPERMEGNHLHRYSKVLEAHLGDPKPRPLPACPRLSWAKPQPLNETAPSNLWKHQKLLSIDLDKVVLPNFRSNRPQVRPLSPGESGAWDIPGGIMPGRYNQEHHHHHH


How the values were obtained:
[1] = molecular target: T1, BTMD-SKI-1; type: biochemical
[2] = molecular target: T2, BTMD-SKI-1; experiment: Ki(app) from Dixon plots; inhibition of peptide IV hydrolysis by BTMD-SKI-1 medium (RP-HPLC), prosegment preincubated with the enzyme for 30 min

Molecule | Hydrolysis of SREBP-2 peptide (% of control) [1] | Ki [2] [nM]
O=S(=O)(F)Cc1ccccc1 [PMSF, phenylmethylsulfonyl fluoride] | 85 % of control | 
PS1 (SKI-1 prosegment construct extending to Leu169, hexa-His tag) (other, Bacterial recombinant (pET24b, BamHI/XhoI, E. coli BL21); The start at aa 18 follows the sense primer and claim 5; Any vector-derived residues are not described; also called PSI) KKHLGDRLEKKSFEKAPCPGCSHLTLKVEFSSTVVEYEYIVAFNGYFTAKARNSFISSALKSSEVDNWRIIPRNNPSSDYPSDFEVIQIKEKQKAGLLTLEDHPNIKRVTPQRKVFRSLKYAESDPTVPCNETRWSQKWQSSRPLRRASLSLHHHHHH |  | 182
